# According to US20180086789A1, “PHARMACEUTICAL COMPOUND” (VALLAURIX PTE. LTD., priority 2015, published 2018):
# Test system: tyrosinase
# Assay: Effects on tyrosinase activity in human melanocyte culture 1750 (3H-labeled tyrosine)
# Type: cell-based
# Conditions: 10^−9 M, six days of treatment, human melanocyte culture 1750 expressing functional MC1R
# Description: The compound with formula structure Ac-Nle-Glu-His-D-Phe-homoArg-Trp-NH2 of the invention was tested using human melanocyte culture coded 1750 that expressed functional MC1R. The melanocytes were plated at a density of 0.3*10^6 cells onto 60 mm dishes (triplicate dishes/group). After 48 hours, the melanocytes were treated every other day for a total of six days with different doses (10^−12 M to 10^−7 M) of the compound. A control without compound was included in the test. Reference compound NDP-MSH, afamelanotide, was also included as comparison at the same concentrations. On treatment day 5, ^3H-labeled tyrosine, the substrate for tyrosinase, was added and 24 hours later, the supernatant was saved to be assayed for tyrosinase activity as described by Suzuki et al (see example 2). Duplicate samples from each were assayed, with triplicate dishes included in each group. Cell number in each dish was counted, and tyrosinase activity was expressed as dpm/10^6 cells and as % of the control. Statistical analysis was carried out using ANOVA followed by Newman Kuels test.
# It will be understood that this tyrosinase activation test relates to a late event after MC1R activation, compared to the earlier secondary messenger effect of the above cAMP test. As pointed out above, activity of tyrosinase requires days of treatment.
structure (smiles),measurement,value
"CCCC[C@H](NC(=O)[C@H](CO)NC(=O)[C@H](Cc1ccc(O)cc1)NC(=O)[C@H](CO)NC(C)=O)C(=O)N[C@@H](CCC(=O)O)C(=O)N[C@@H](Cc1cnc[nH]1)C(=O)N[C@H](Cc1ccccc1)C(=O)N[C@@H](CCCNC(=N)N)C(=O)N[C@@H](Cc1c[nH]c2ccccc12)C(=O)NCC(=O)N[C@@H](CCCCN)C(=O)N1CCC[C@H]1C(=O)N[C@H](C(N)=O)C(C)C [NDP-MSH, reference compound]","tyrosinase activity, efficacy, % of the control",156%
